Assay results reported in patent US9404916B2, “Use of a protein kinase inhibitor to detect immune cells, such as T cells” (University College Cardiff Consultants Limited, priority 2008, dated 2016).

Key:
[1] = biological target: IE6 TCR (on CTL clone IE6); test: flow cytometry, tetramer against CD8 APC on CTL clone IE6; Untreated
[2] = biological target: Short term line

HLA A2/PPI15-24 tetramer (from UniProt P61769 21-119) (peptide-MHC)
% of cells in the tetramer+ CD8+ quadrant [1]: 4%
% of cells in the tetramer+ CD8+ quadrant [2]: 0.02%
